From US9586962B2, “Disubstituted octahydropyrrolo [3,4-C] pyrroles as orexin receptor modulators” (Janssen Pharmaceutica NV, priority 2011, dated 2017)

By UniProt entry, the sequences of proteins in these tests, tags left out.
UniProt O43614, whole entry: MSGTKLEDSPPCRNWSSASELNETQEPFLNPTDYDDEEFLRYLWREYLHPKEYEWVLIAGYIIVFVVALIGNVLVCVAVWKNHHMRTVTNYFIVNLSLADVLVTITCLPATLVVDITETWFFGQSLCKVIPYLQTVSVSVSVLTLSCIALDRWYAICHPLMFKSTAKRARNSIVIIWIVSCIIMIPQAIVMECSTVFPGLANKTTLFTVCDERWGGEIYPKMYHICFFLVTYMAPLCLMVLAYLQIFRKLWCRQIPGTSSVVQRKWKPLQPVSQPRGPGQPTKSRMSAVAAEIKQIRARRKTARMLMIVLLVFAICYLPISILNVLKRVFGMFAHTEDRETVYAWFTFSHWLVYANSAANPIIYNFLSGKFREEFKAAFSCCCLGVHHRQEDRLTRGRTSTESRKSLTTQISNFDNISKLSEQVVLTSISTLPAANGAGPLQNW

These molecules were tested against T1, human orexin 2 receptor (Homo sapiens (Human), UniProt O43614) (assay: Human orexin 2 receptor Ca2+ mobilization assay (FLIPR, PFSK cells, orexin B 100 nM)). Details: modified Cheng-Prusoff correction, read-out: OR 2 Kb.
Format: cell-based

Compound | Kb
Cc1cnc(N2CC3CN(C(=O)c4c(F)cccc4-n4nccn4)CC3C2)nc1C (centres unmarked) [Example 295, 2-(4,5-Dimethylpyrimidin-2-yl)-5-{[2-fluoro-6-(2H-1,2,3-triazol-2-yl)phenyl]carbonyl}octahydropyrrolo[3,4-c]pyrrole] | 10 nM
[2H]c1c(C([2H])([2H])[2H])nc(N2CC3CN(C(=O)c4c(F)cccc4-n4nccn4)CC3C2)nc1C([2H])([2H])[2H] (centres unmarked) [Example 382, 2-{4,6-Bis[(^2H3)methyl](^2H)pyrimidin-2-yl}-5-{[2-fluoro-6-(2H-1,2,3-triazol-2-yl)phenyl]carbonyl}octahydropyrrolo[3,4-c]pyrrole] | 3 nM
Cc1cc(C)nc(N2CC3CN(C(=O)c4cccc(F)c4-c4nc(C)no4)CC3C2)n1 (centres unmarked) [Example 314, 2-(4,6-Dimethylpyrimidin-2-yl)-5-{[3-fluoro-2-(3-methyl-1,2,4-oxadiazol-5-yl)phenyl]carbonyl}octahydropyrrolo[3,4-c]pyrrole] | 4 nM
Cc1nc(N2CC3CN(C(=O)c4c(F)cccc4-n4nccn4)CC3C2)ncc1F (centres unmarked) [Example 293, 2-(5-Fluoro-4-methylpyrimidin-2-yl)-5-{[2-fluoro-6-(2H-1,2,3-triazol-2-yl)phenyl]carbonyl}octahydropyrrolo[3,4-c]pyrrole] | 79 nM
Cc1cc(C)nc(N2CC3CN(C(=O)c4c(F)cccc4-n4nccn4)CC3C2)n1 (centres unmarked) [Example 107, [5-(4,6-Dimethyl-pyrimidin-2-yl)-hexahydro-pyrrolo[3,4-c]pyrrol-2-yl]-(2-fluoro-6-[1,2,3]triazol-2-yl-phenyl)-methanone] | 2 nM
Cc1nc(N2CC3CN(C(=O)c4c(F)cccc4-n4nccn4)CC3C2)ncc1Cl (centres unmarked) [Example 316, 2-(5-Chloro-4-methylpyrimidin-2-yl)-5-{[2-fluoro-6-(2H-1,2,3-triazol-2-yl)phenyl]carbonyl}octahydropyrrolo[3,4-c]pyrrole] | 8 nM
O=C(c1c(F)cccc1-n1nccn1)N1CC2CN(c3nc(C(F)(F)F)cc(C(F)(F)F)n3)CC2C1 (centres unmarked) [Example 280, 2-[4,6-Bis(trifluoromethyl)pyrimidin-2-yl]-5-{[2-fluoro-6-(2H-1,2,3-triazol-2-yl)phenyl]carbonyl}octahydropyrrolo[3,4-c]pyrrole] | 63 nM
Cc1cc(C)nc(N2CC3CN(C(=O)c4ccc(F)cc4-n4nccn4)CC3C2)n1 (centres unmarked) [Example 118, 2-(4,6-Dimethylpyrimidin-2-yl)-5-{[4-fluoro-2-(2H-1,2,3-triazol-2-yl)phenyl]carbonyl}octahydropyrrolo[3,4-c]pyrrole] | 5 nM
Cc1cc(C(C)(C)C)nc(N2CC3CN(C(=O)c4c(F)cccc4-n4nccn4)CC3C2)n1 (centres unmarked) [Example 301, 2-(4-tert-Butyl-6-methylpyrimidin-2-yl)-5-{[2-fluoro-6-(2H-1,2,3-triazol-2-yl)phenyl]carbonyl}octahydropyrrolo[3,4-c]pyrrole] | 20 nM
Cc1cc(C)nc(N2CC3CN(C(=O)c4cccc(C)c4-n4nccn4)CC3C2)n1 (centres unmarked) [Example 260, (5-(4,6-Dimethylpyrimidin-2-yl)hexahydropyrrolo[3,4-c]pyrrol-2(1H)-yl)(3-methyl-2-(2H-1,2,3-triazol-2-yl)phenyl)methanone] | 16 nM
Cc1cc(C)nc(N2CC3CN(C(=O)c4cc(I)ccc4-n4nccn4)CC3C2)n1 (centres unmarked) [Example 105, 2-(4,6-Dimethylpyrimidin-2-yl)-5-{[5-iodo-2-(2H-1,2,3-triazol-2-yl)phenyl]carbonyl}octahydropyrrolo[3,4-c]pyrrole] | 20 nM
Cc1cc(C)nc(N2CC3CN(C(=O)c4ccc5ccccc5c4-n4nccn4)CC3C2)n1 (centres unmarked) [Example 331, [5-(4,6-Dimethyl-pyrimidin-2-yl)-hexahydro-pyrrolo[3,4-c]pyrrol-2-yl]-(1-[1,2,3]triazol-2-yl-naphthalen-2-yl)-methanone] | 32 nM
Cc1cc(C)nc(N2CC3CN(C(=O)c4c(C)cccc4-n4nccn4)CC3C2)n1 (centres unmarked) [Example 259, (5-(4,6-Dimethylpyrimidin-2-yl)hexahydropyrrolo[3,4-c]pyrrol-2(1H)-yl)(2-methyl-6-(2H-1,2,3-triazol-2-yl)phenyl)methanone] | 3 nM

Other lines, results leading:

Kb | Compound
8 nM | Cc1cc(CO)nc(N2CC3CN(C(=O)c4c(F)cccc4-n4nccn4)CC3C2)n1 (centres unmarked) [Example 433, {2-[5-{[2-Fluoro-6-(2H-1,2,3-triazol-2-yl)phenyl]carbonyl}hexahydropyrrolo[3,4-c]pyrrol-2(1H)-yl]-6-methylpyrimidin-4-yl}methanol]
4 nM | [2H]c1c(C([2H])([2H])[2H])nc(N2CC3CN(C(=O)c4cccc(F)c4-c4nc(C)no4)CC3C2)nc1C([2H])([2H])[2H] (centres unmarked) [Example 383, 2-{4,6-Bis[(^2H3)methyl](^2H)pyrimidin-2-yl}-5-{[3-fluoro-2-(3-methyl-1,2,4-oxadiazol-5-yl)phenyl]carbonyl}octahydropyrrolo[3,4-c]pyrrole]
3 nM | Cc1nc(N2CC3CN(C(=O)c4c(F)cccc4-n4nccn4)CC3C2)nc(C)c1C (centres unmarked) [Example 294, 2-{[2-Fluoro-6-(2H-1,2,3-triazol-2-yl)phenyl]carbonyl}-5-(4,5,6-trimethylpyrimidin-2-yl)octahydropyrrolo[3,4-c]pyrrole]
25 nM | COc1cc(OC)nc(N2CC3CN(C(=O)c4c(F)cccc4-n4nccn4)CC3C2)n1 (centres unmarked) [Example 258, (5-(4,6-Dimethoxypyrimidin-2-yl)hexahydropyrrolo[3,4-c]pyrrol-2(1H)-yl)(2-fluoro-6-(2H-1,2,3-triazol-2-yl)phenyl)methanone]
3 nM | COc1cc(C)nc(N2CC3CN(C(=O)c4c(F)cccc4-n4nccn4)CC3C2)n1 (centres unmarked) [Example 296, 2-{[2-Fluoro-6-(2H-1,2,3-triazol-2-yl)phenyl]carbonyl}-5-(4-methoxy-6-methylpyrimidin-2-yl)octahydropyrrolo[3,4-c]pyrrole]
63 nM | Cc1cc(C)nc(N2CC3CN(C(=O)c4ncccc4-n4nccn4)CC3C2)n1 (centres unmarked) [Example 332, [5-(4,6-Dimethyl-pyrimidin-2-yl)-hexahydro-pyrrolo[3,4-c]pyrrol-2-yl]-(3-[1,2,3]triazol-2-yl-pyridin-2-yl)-methanone]
8 nM | Cc1cc(C2CC2)nc(N2CC3CN(C(=O)c4c(F)cccc4-n4nccn4)CC3C2)n1 (centres unmarked) [Example 302, 2-(4-Cyclopropyl-6-methylpyrimidin-2-yl)-5-{[2-fluoro-6-(2H-1,2,3-triazol-2-yl)phenyl]carbonyl}octahydropyrrolo[3,4-c]pyrrole]

What follows are molecules tested against T1, human orexin 2 receptor (assay: Human orexin 2 receptor radioligand binding ([3H]EMPA competition, HEK293 cells)). Details: read-out: OR 2 Ki, HEK293 cells expressing human orexin-2 receptor.

Compound | Ki
Cc1nc(N2CC3CN(C(=O)c4c(F)cccc4-n4nccn4)CC3C2)nc(C)c1O (centres unmarked) [Example 498, 2-[5-{[2-Fluoro-6-(2H-1,2,3-triazol-2-yl)phenyl]carbonyl}hexahydropyrrolo[3,4-c]pyrrol-2(1H)-yl]-4,6-dimethylpyrimidin-5-ol] | 17 nM
Cc1cc(C)nc(N2CC3CN(C(=O)c4ccc(O)cc4-n4nccn4)CC3C2)n1 (centres unmarked) [Example 462, 4-{[5-(4,6-Dimethylpyrimidin-2-yl)hexahydropyrrolo[3,4-c]pyrrol-2(1H)-yl]carbonyl}-3-(2H-1,2,3-triazol-2-yl)phenol] | 18 nM
Cc1cc(C)nc(N2CC3CN(C(=O)c4nc(C)ccc4-n4nccn4)CC3C2)n1 (centres unmarked) [Example 438, 2-(4,6-Dimethylpyrimidin-2-yl)-5-{[6-methyl-3-(2H-1,2,3-triazol-2-yl)pyridin-2-yl]carbonyl}octahydropyrrolo[3,4-c]pyrrole] | 558 nM

Second part, the molecule after the results:

Ki | Compound
103 nM | Cc1cc(C)nc(N2CC3CN(C(=O)c4ncc(Cl)cc4-n4nccn4)CC3C2)n1 (centres unmarked) [Example 441, 2-{[5-Chloro-3-(2H-1,2,3-triazol-2-yl)pyridin-2-yl]carbonyl}-5-(4,6-dimethylpyrimidin-2-yl)octahydropyrrolo[3,4-c]pyrrole]
30 nM | Cc1cc(CO)nc(N2CC3CN(C(=O)c4c(F)cccc4-n4nccn4)CC3C2)n1 (centres unmarked) [Example 433, {2-[5-{[2-Fluoro-6-(2H-1,2,3-triazol-2-yl)phenyl]carbonyl}hexahydropyrrolo[3,4-c]pyrrol-2(1H)-yl]-6-methylpyrimidin-4-yl}methanol]
7 nM | COc1c(C)nc(N2CC3CN(C(=O)c4c(F)cccc4-n4nccn4)CC3C2)nc1C (centres unmarked) [Example 497, 2-{[2-Fluoro-6-(2H-1,2,3-triazol-2-yl)phenyl]carbonyl}-5-(5-methoxy-4,6-dimethylpyrimidin-2-yl)octahydropyrrolo[3,4-c]pyrrole]
